Results taken from publication PMC3774744.

System: CC(=O)OP(=O)(O)O
Assay: purified protein
Settings: pH 7.5; 25.0 °C

(Vibrio cholerae O395) showed a Km of 6.4 ± 0.45 mM.
